In the test the target is Cyclin-dependent kinase 7/ cyclin H (Homo sapiens, UniProt P50613). In words: biochemical.

Protein sequences, listed by entry. Tags and fused reporters are not part of them. Lines headed by an entry give the natural chain unless they say otherwise; changes in a name come on top.
UniProt P50613: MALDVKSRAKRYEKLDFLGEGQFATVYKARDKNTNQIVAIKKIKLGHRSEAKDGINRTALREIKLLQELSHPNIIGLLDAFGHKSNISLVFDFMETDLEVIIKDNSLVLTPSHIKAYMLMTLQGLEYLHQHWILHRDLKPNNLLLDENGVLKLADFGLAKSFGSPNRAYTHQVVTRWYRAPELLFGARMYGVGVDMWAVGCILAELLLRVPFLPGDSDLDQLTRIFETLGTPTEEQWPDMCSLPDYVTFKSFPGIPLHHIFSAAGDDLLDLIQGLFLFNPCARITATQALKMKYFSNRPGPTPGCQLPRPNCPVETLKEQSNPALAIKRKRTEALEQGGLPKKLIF

pKi: −log10 of the molar value.

In general, pKi refers to the Ki on a negative log10 scale, so that one unit is a factor of ten. For `CNc1nc(C)c(-c2nc(Nc3cccc(S(N)(=O)=O)c3)ncc2F)s1` [ASNUCICLIB], the pKi is 7.04.

These data come from ChEMBL document CHEMBL2346630 (J Med Chem, 2013).
